One compound from ChEMBL document CHEMBL3875185, “Structure-anticonvulsant activity studies in the group of (E)-N-cinnamoyl aminoalkanols derivatives monosubstituted in phenyl ring with 4-Cl, 4-CH3 or 2-CH3” (Bioorg Med Chem, 2017) can be followed below.

Common to all, as to format: toxicity, organism-based
What all share (settings): in vivo, read-out: Ratio TD50/ED50

Data set [1] can be described thus: Protection index, ratio of TD50 for neurotoxicity in po dosed Sprague-Dawley rat model to ED50 for po dosed maximal electroshock induced seizure Sprague-Dawley rat model. On the technique in general: The maximal electroshock test induces tonic seizures with an electrical stimulus.
The nature of data set [2]: Protection index, ratio of TD50 for neurotoxicity in ip dosed mouse to ED50 for ip dosed 6-Hz induced seizure mouse model at 32 mA.
Data set [3] can be described thus: Protection index, ratio of TD50 for neurotoxicity in ip dosed mouse to ED50 for ip dosed pentylenetetrazole induced seizure mouse model.
A short description of data set [4]: Protection index, ratio of TD50 for neurotoxicity in ip dosed mouse to ED50 for ip dosed maximal electroshock induced seizure mouse model.
Data set [5] can be described thus: Protection index, ratio of TD50 for neurotoxicity in po dosed Sprague-Dawley rat model to ED50 for po dosed pentylenetetrazole induced seizure Sprague-Dawley rat model.

Structures are written as SMILES.

For `NC(=O)N1c2ccccc2C=Cc2ccccc21` [CARBAMAZEPINE], the selectivity ratio in data set [1] was 68; in data set [2], 0.95; in data set [3] it was < 0.91; in data set [4], 5.81; in data set [5], < 1.46.
